From ChEMBL document CHEMBL5335800, “Focused Screening Identifies Different Sensitivities of Human TET Oxygenases to the Oncometabolite 2-Hydroxyglutarate” (J Med Chem, 2024)

Sequences of proteins named here, by UniProt entry; tags and fusion partners are left off. A change or cut given only in a name is not applied to a line headed by its entry.
UniProt Q8NFU7: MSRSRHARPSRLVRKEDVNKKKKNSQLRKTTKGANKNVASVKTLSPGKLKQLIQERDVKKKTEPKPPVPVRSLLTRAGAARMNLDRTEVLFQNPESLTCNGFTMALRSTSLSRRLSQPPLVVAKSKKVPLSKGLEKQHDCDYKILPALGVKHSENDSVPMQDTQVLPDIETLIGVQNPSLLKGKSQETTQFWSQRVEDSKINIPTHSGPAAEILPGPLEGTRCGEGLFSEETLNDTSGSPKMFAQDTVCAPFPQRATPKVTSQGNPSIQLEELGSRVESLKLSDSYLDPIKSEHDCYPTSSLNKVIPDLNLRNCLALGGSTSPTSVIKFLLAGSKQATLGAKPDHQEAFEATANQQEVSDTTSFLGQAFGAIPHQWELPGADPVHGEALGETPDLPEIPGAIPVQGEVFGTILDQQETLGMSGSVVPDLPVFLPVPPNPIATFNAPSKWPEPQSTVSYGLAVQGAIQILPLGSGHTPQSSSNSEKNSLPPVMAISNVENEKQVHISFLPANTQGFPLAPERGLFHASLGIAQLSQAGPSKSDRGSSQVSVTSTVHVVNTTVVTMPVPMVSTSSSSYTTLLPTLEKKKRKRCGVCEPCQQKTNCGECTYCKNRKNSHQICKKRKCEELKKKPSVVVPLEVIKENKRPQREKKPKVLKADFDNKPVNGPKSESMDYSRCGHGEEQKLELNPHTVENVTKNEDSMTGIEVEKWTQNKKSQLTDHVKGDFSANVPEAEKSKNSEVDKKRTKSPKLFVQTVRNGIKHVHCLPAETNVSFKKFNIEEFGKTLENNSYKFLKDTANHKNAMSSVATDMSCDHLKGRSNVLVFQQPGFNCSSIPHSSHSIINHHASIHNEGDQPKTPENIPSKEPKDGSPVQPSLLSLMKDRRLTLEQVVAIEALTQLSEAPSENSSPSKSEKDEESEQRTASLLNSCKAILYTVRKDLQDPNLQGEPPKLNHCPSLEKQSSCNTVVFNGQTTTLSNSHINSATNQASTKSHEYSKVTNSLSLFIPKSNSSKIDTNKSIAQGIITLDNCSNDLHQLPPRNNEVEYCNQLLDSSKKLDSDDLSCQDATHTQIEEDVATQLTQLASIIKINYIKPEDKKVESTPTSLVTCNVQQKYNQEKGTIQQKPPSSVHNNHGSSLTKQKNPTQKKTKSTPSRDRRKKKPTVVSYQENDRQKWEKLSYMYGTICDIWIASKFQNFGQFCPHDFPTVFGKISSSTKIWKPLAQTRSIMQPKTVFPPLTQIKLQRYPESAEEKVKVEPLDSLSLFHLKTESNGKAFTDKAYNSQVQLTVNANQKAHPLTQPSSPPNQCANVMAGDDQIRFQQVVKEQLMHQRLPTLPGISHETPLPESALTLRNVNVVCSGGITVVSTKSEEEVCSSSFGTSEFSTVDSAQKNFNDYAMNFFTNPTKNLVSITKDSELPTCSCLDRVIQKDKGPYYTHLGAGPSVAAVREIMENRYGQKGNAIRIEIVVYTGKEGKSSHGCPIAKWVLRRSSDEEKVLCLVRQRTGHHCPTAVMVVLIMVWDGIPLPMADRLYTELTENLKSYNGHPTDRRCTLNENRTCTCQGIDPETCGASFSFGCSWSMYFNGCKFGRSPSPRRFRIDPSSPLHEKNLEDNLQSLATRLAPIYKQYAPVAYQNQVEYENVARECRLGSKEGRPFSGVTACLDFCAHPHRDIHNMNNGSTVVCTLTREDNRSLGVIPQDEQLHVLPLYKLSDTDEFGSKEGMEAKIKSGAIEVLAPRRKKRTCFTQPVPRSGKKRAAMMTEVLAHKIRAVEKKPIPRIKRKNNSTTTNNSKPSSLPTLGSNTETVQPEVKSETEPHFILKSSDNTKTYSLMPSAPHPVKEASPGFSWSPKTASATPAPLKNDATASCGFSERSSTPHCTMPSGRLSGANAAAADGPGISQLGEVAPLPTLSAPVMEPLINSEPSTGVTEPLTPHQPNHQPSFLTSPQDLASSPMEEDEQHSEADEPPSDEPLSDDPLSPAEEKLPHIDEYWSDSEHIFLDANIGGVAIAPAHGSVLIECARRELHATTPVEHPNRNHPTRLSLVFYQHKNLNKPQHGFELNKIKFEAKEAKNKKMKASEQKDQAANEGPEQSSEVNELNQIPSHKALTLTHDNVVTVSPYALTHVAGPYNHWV

How the values were obtained:
[1] = molecular target: T1, Methylcytosine dioxygenase TET1 (Homo sapiens, UniProt Q8NFU7)
[2] = molecular target: T1, Methylcytosine dioxygenase TET1; assay: Inhibition of N-terminal 3xFlag-tagged human TET1 catalytic domain (E1418 to V2136 residues) expressed in Sf9 cells using 5-methylcytosine as substrate at 100 uM preincubated for 10 mins followed by DNA-cofactor addition and measured after 30 mins by Alphascreen assay relative to control; settings: time 40.0 min
Homo sapiens [3] = species on record: Homo sapiens; assay: Inhibition of N-terminal His-tagged recombinant human TET2 catalytic domain LCIdel mutant (D1129 to G1936 residues with Y1481 to N1843 replaced by a 3 x GGGGS linker) expressed in Escherichia coli BL21 (DE3) using 5-methylcytosine as substrate at 100 uM preincubated for 10 mins followed by DNA-cofactor addition and measured after 10 mins by Alphascreen assay relative to control; settings: time 20.0 min
Homo sapiens [4] = species on record: Homo sapiens; settings: dose 100.0 µM, time 20.0 min

| Compound | EC50 [1] [µM] | inhibition [2] [%] | inhibition (Homo sapiens [3]) [%] | inhibition (Homo sapiens [4]) [%] |
| --- | --- | --- | --- | --- |
| O=C(O)CNC(=O)c1c(O)n(C2CCCCC2)c(=O)n(C2CCCCC2)c1=O | > 1000 | – | – | – |
| O=c1c(-n2ccnn2)c[nH]n1-c1cc(N2CCOCC2)ncn1 [MOLIDUSTAT] | – | < 20 | < 20 | < 20 |
